Data from US20090069565A1, “NEW INDOLE DERIVATIVES AS FACTOR XA INHIBITORS” (priority 2001, published 2009).

Chains of the proteins cited; added tags and fusions are not shown. Residues count along the entry.
UniProt P00742, 41-179 partner limits assumed: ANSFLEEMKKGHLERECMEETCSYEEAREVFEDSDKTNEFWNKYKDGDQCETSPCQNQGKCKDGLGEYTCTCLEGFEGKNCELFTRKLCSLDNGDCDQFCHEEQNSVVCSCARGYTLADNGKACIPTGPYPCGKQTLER
UniProt P00742, 235-488 limits assumed: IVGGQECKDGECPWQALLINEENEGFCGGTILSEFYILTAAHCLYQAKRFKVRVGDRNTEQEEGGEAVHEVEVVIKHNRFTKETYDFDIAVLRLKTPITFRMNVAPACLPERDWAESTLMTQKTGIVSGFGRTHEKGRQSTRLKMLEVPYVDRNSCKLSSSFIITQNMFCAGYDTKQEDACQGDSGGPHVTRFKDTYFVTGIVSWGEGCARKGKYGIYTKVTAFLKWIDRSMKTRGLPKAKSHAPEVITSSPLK

Molecular target: human factor Xa (Homo sapiens, UniProt P00742)
Assay: Factor Xa assay (chromogenic, substrate S-2765);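 note: purified enzyme preincubated with inhibitor for 10 min before substrate addition, final reaction volume 100 µl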
Assay type: biochemical
Conditions: inhibition constant for factor Xa; purified enzyme 0.5 nM, substrate S-2765 140 μM, 25° C., pH 7.8; Ki=IC50/{1+(substrate concentration/Km)}; read-out: Ki(FXa)

Ki: 3000 nM
SMILES: CC(C)NC1CCN(C(=O)c2cc3ccccc3n2Cc2cc(-c3ccc(Cl)s3)on2)CC1 [Example 34, {1-[5-(5-Chloro-thiophen-2-yl)-isoxazol-3-ylmethyl]-1H-indol-2-yl}-(4-isopropylamino-piperidin-1-yl)-methanone]
